{"source": "patent US20140100537A1", "about": "“TRANSDERMAL PHARMACEUTICAL PREPARATION AND ADMINISTRATION OF TIROFIBAN” (MEDICURE INTERNATIONAL INC., priority 2009, published 2014)", "origin": "cited, not measured here", "conditions": "in vivo", "data": [{"smiles": "CCCCS(=O)(=O)NC(Cc1ccc(OCCCCC2CCNCC2)cc1)C(=O)O.Cl", "note": "(stereo not shown) [tirofiban]", "values": [{"measurement": "biological half life", "result": "approximately 2 hours"}]}]}
